Assay results: publication PMC3961306, “Comparison of the Cancer Gene Targeting and Biochemical Selectivities of All Targeted Kinase Inhibitors Approved for Clinical Use” (PLoS ONE, 2014)

The chains behind the UniProt entries cited, without tags or fusion partners. Residues count along the entry.
UniProt P19784, whole entry, stated change not applied: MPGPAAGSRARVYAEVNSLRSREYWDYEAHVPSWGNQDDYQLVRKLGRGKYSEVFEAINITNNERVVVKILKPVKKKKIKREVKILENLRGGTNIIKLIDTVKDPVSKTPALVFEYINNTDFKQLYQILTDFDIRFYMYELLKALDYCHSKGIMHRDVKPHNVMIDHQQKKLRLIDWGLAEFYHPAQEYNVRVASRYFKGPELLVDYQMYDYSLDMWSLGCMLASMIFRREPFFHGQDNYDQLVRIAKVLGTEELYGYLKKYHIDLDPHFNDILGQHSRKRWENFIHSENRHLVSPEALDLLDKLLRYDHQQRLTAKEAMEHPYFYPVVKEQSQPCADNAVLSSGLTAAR
UniProt P52333, whole entry, stated change not applied: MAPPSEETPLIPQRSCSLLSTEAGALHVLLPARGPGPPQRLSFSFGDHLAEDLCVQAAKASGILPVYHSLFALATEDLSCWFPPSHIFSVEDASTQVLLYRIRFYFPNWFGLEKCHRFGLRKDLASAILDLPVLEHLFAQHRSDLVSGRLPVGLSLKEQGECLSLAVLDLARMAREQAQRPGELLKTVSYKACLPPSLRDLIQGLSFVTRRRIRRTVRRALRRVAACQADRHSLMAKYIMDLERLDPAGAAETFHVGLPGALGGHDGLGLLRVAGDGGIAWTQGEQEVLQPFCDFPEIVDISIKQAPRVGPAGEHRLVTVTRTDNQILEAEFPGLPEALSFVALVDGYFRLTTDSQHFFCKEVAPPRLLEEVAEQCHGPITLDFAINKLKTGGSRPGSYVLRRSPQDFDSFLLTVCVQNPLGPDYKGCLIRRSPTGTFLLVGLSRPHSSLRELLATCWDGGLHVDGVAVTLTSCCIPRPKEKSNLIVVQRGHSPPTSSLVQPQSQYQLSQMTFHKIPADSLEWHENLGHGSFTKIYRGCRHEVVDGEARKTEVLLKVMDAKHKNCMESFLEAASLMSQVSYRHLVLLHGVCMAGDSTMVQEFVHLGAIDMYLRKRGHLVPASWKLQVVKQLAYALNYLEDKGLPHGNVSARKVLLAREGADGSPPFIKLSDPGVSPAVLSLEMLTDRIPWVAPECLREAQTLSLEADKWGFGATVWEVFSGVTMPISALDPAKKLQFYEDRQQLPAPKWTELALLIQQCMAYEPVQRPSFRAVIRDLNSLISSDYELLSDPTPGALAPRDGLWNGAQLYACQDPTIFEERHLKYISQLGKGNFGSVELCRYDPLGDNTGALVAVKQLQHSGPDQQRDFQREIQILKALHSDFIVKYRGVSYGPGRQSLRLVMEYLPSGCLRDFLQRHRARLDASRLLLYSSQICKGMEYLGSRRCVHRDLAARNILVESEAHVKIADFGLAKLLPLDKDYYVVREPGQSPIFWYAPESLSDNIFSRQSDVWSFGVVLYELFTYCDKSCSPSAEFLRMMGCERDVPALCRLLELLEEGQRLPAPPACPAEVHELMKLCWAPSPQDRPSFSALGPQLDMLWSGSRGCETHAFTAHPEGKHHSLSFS
UniProt P80192, whole entry, stated change not applied: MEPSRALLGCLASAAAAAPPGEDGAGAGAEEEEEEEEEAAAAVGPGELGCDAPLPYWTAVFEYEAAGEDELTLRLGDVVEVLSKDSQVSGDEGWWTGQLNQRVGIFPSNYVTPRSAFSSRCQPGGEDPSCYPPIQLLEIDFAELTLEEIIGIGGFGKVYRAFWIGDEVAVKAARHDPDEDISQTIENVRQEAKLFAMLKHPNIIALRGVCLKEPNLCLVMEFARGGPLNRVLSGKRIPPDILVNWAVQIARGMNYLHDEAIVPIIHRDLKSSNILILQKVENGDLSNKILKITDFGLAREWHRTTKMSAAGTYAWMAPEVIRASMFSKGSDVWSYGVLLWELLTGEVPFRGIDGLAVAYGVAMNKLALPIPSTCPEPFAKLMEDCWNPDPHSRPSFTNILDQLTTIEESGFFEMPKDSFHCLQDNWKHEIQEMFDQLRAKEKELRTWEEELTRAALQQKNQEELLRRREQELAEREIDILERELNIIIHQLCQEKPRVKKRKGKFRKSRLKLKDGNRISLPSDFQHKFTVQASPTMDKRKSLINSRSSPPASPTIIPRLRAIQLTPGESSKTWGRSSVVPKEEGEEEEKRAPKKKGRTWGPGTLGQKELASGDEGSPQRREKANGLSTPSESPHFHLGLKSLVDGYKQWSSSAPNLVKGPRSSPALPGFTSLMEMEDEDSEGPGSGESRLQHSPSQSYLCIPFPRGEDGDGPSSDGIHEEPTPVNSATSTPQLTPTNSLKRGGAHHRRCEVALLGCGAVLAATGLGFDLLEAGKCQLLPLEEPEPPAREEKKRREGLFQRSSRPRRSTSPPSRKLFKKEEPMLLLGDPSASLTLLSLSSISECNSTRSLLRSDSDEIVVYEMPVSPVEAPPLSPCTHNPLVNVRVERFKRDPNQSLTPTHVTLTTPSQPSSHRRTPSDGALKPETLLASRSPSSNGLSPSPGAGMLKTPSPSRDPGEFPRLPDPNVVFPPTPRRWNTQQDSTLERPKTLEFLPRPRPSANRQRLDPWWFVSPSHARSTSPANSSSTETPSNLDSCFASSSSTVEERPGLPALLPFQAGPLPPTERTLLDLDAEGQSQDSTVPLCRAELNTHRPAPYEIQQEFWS
UniProt P21802, 22-821, stated change not applied: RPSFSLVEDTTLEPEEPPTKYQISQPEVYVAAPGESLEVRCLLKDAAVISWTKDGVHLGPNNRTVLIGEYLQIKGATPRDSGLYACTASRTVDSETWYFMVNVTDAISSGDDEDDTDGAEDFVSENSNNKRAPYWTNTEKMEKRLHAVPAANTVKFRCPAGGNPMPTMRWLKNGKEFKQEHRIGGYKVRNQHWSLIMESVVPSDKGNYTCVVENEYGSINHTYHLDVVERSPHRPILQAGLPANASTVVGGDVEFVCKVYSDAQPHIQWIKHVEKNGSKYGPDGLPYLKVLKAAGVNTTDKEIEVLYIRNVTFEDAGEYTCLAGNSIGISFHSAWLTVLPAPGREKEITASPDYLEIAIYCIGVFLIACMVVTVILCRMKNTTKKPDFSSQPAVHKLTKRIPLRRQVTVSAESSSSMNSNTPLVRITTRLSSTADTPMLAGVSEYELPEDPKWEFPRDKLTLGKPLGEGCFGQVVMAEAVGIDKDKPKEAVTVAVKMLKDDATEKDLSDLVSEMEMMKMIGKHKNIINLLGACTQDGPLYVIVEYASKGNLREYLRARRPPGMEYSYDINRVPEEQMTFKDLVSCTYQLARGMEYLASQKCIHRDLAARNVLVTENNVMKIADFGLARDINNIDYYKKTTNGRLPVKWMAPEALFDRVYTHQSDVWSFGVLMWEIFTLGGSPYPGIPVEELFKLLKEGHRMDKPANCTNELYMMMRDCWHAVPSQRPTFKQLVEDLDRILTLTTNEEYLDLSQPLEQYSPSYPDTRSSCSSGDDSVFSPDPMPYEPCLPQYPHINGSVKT
UniProt Q9UQB9, whole entry, stated change not applied: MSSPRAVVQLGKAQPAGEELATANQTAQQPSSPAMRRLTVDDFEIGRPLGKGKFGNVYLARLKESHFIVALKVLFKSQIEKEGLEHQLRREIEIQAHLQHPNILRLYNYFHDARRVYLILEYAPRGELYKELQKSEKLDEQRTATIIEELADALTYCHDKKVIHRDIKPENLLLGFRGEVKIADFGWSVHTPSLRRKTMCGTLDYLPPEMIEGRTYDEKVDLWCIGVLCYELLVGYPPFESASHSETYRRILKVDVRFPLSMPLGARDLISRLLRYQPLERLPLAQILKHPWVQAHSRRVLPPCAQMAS
UniProt Q9HCP0, whole entry, stated change not applied: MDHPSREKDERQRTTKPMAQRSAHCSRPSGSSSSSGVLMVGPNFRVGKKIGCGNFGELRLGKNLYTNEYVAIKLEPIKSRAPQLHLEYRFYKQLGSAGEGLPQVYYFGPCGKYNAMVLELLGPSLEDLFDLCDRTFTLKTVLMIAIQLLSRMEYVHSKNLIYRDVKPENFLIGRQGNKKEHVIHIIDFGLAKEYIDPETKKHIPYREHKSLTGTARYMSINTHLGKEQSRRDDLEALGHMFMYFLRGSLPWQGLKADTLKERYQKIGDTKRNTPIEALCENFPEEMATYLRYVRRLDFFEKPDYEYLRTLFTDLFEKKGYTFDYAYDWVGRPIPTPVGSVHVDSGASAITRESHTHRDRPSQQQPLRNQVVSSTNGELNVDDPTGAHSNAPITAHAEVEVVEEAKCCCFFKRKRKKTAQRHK
UniProt P54756, 25-1037, stated change not applied: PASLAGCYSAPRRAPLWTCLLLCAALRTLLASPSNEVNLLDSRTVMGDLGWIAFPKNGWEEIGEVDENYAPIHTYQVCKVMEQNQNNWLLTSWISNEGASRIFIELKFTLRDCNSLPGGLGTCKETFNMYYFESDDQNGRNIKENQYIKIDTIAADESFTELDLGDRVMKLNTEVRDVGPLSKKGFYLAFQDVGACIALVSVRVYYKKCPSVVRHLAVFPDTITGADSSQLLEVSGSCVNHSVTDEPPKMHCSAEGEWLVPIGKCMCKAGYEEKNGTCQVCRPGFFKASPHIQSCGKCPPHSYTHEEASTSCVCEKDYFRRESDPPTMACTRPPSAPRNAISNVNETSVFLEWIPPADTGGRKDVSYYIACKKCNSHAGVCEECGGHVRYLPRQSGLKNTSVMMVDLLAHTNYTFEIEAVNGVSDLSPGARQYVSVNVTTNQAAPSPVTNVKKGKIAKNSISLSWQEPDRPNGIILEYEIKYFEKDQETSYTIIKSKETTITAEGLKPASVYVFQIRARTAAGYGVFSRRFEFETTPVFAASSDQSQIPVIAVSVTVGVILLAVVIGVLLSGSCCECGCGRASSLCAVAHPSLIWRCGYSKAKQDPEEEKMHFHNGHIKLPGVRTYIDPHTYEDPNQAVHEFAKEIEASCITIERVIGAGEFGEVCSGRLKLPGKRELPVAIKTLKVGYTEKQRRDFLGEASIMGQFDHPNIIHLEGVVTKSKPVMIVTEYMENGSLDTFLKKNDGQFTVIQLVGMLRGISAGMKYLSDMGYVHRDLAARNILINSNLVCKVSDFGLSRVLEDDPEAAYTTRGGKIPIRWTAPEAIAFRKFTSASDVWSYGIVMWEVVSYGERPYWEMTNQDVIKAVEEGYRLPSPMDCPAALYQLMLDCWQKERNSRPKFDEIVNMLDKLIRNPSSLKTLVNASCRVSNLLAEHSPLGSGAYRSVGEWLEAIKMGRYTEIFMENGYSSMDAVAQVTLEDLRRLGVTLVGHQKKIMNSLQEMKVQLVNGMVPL
UniProt P53779, whole entry, stated change not applied: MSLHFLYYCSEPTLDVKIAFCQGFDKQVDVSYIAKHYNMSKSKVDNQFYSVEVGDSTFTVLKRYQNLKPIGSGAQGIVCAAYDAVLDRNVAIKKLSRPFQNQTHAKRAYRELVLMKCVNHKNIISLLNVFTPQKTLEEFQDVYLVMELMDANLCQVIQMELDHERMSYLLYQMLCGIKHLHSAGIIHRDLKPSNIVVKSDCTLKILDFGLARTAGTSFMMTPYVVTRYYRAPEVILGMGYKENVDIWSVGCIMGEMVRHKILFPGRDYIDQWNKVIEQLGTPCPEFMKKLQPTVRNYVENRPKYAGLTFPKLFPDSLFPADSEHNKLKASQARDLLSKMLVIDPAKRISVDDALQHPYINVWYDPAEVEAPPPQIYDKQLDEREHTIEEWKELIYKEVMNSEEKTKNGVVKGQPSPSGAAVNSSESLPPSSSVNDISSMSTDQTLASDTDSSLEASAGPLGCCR
UniProt P52564, whole entry, stated change not applied: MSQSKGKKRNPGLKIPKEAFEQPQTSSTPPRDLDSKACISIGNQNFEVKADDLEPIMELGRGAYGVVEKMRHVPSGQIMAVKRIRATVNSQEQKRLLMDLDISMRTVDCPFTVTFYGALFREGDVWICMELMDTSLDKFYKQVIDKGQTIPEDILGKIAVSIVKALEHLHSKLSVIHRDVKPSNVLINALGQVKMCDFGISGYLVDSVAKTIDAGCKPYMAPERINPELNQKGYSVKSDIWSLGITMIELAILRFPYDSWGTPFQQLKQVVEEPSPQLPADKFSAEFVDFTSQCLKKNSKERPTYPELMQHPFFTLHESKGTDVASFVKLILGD
UniProt P06241, whole entry, stated change not applied: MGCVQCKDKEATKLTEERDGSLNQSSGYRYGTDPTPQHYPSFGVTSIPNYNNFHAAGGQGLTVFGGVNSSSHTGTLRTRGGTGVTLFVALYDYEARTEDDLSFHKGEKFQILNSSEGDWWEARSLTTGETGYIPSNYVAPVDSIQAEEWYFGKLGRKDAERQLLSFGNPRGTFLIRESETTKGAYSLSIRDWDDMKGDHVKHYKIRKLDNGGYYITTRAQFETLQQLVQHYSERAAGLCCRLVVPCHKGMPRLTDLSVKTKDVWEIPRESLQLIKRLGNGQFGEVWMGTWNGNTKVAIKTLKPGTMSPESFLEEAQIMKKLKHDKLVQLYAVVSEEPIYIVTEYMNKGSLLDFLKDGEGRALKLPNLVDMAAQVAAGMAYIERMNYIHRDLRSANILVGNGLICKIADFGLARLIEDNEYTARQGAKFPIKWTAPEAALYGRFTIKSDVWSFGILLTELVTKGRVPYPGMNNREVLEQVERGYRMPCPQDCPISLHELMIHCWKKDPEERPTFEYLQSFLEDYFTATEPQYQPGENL

Columns and labels:
Test in all cases: Kinase profiling in a biochemical assay panel (mobility shift assays and ELISA), %-inhibition at 1 μM; selectivity entropy
[1] = biological target: panel of more than 300 wild-type and mutant kinases (313 kinase panel) (Homo sapiens, UniProt P19784)
[2] = biological target: panel of more than 300 wild-type and mutant kinases (313 kinase panel) (Homo sapiens, UniProt P52333); conditions: kinase JAK3; compound at 1 μM
[3] = biological target: panel of more than 300 wild-type and mutant kinases (313 kinase panel) (Homo sapiens, UniProt P08581)
[4] = biological target: panel of more than 300 wild-type and mutant kinases (313 kinase panel) (Homo sapiens, UniProt P80192); conditions: 1 µM
[5] = biological target: panel of more than 300 wild-type and mutant kinases (313 kinase panel) (Homo sapiens, UniProt P21802); conditions: 1 µM
[6] = biological target: panel of more than 300 wild-type and mutant kinases (313 kinase panel) (Homo sapiens, UniProt Q9HBY8); conditions: 1 µM
[7] = biological target: panel of more than 300 wild-type and mutant kinases (313 kinase panel) (Homo sapiens, UniProt Q9H2X6); conditions: 1 µM
[8] = biological target: panel of more than 300 wild-type and mutant kinases (313 kinase panel) (Homo sapiens, UniProt Q05655); conditions: 1 µM
[9] = biological target: panel of more than 300 wild-type and mutant kinases (313 kinase panel) (Homo sapiens, UniProt P06213); conditions: 1 µM
[10] = biological target: panel of more than 300 wild-type and mutant kinases (313 kinase panel) (Homo sapiens, UniProt P16591); conditions: 1 µM
[11] = biological target: panel of more than 300 wild-type and mutant kinases (313 kinase panel) (Homo sapiens, UniProt Q9P286); conditions: 1 µM
[12] = biological target: panel of more than 300 wild-type and mutant kinases (313 kinase panel) (Homo sapiens, UniProt Q9UQB9); conditions: 1 µM
[13] = biological target: panel of more than 300 wild-type and mutant kinases (313 kinase panel) (Homo sapiens, UniProt Q14164); conditions: 1 µM
[14] = biological target: panel of more than 300 wild-type and mutant kinases (313 kinase panel) (Homo sapiens, UniProt Q9HCP0); conditions: 1 µM
[15] = biological target: panel of more than 300 wild-type and mutant kinases (313 kinase panel) (Homo sapiens, UniProt P08069)
[16] = biological target: panel of more than 300 wild-type and mutant kinases (313 kinase panel) (Homo sapiens, UniProt P54756); conditions: 1 µM
[17] = biological target: panel of more than 300 wild-type and mutant kinases (313 kinase panel) (Homo sapiens, UniProt Q9BUB5); conditions: 1 µM
[18] = biological target: panel of more than 300 wild-type and mutant kinases (313 kinase panel) (Homo sapiens, UniProt P11309); conditions: 1 µM
[19] = biological target: panel of more than 300 wild-type and mutant kinases (313 kinase panel) (Homo sapiens, UniProt P53779); conditions: 1 µM
[20] = biological target: panel of more than 300 wild-type and mutant kinases (313 kinase panel) (Homo sapiens, UniProt P52564); conditions: 1 µM
[21] = biological target: panel of more than 300 wild-type and mutant kinases (313 kinase panel) (Homo sapiens, UniProt P07949); conditions: 1 µM
[22] = biological target: panel of more than 300 wild-type and mutant kinases (313 kinase panel) (Homo sapiens, UniProt P06241); conditions: 1 µM
[23] = biological target: panel of more than 300 wild-type and mutant kinases (313 kinase panel) (Homo sapiens, UniProt P07949, Y791F); conditions: 1 µM

SMILES	%-inhibition of JAK3 [2]	%-inhibition of MLK1 [4]	%-inhibition of FGFR2 [5]	%-inhibition of SGK2 [6]	%-inhibition of HIPK2 [7]	%-inhibition of PKCδ [8]	%-inhibition of INSR [9]	%-inhibition of FER [10]	%-inhibition of PAK5 [11]	%-inhibition, AurC [12]	%-inhibition of IKKε [13]	%-inhibition, CK1γ1 [14]	%-inhibition of IGF1R [15]	%-inhibition of EPHA5 [16]	%-inhibition of MNK1 [17]	%-inhibition of PIM1 [18]	%-inhibition of JNK3 [19]	%-inhibition of MAP2K6 [20]	%-inhibition of RET [21]	%-inhibition of FYN [22]	also measured
CNC(=O)c1ccccc1Sc1ccc2c(/C=C/c3ccccn3)n[nH]c2c1 [axitinib]	75%	–	–	–	–	–	–	–	–	–	–	–	–	–	–	–	–	–	–	–	%-inhibition, CK2α2/β ([1]; kinase CK2α2/β, 1 μM compound): -7.47%; %-inhibition of MET ([3]; kinase MET, compound at 1 μM): 36%
COc1cc2ncnc(Nc3ccc(F)c(Cl)c3)c2cc1OCCCN1CCOCC1 [gefitinib]	4%	9%	13%	6.52%	12%	1.51%	2.63%	6%	2.83%	13%	4%	2.33%	6%	59%	99%	17%	28%	12%	48%	24%	%-inhibition of RET(Y791F) [23]: 56%
C[C@@H]1CCN(C(=O)CC#N)C[C@@H]1N(C)c1ncnc2[nH]ccc12 [tofacitinib]	–	2.14%	17%	-0.178%	-8%	12%	-1%	3.58%	-1.44%	-4%	-5.49%	-3.25%	0.207%	0.175%	-1.62%	-9%	-2%	3.35%	14%	33%	%-inhibition, CK2α2/β ([1]; 1 µM): -7%; %-inhibition of MET ([3]; 1 µM): -1.22%; %-inhibition of RET(Y791F) [23]: 13%
